# Yeast mating assay 2: variants of the scFv Ab-95

Source: Engelhart et al. 2022 (doi:10.1038/s41597-022-01779-4), MIT Lincoln Laboratory and A-Alpha Bio; data file from the FLAb repository.

All variants were tested on one target, the spike HR2 peptide PDVDLGDISGINAS (SARS-CoV-2).

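Phage display of a naive human antibody library on the peptide gave the parent. Library AAYL52 holds single substitutions and randomly drawn double and triple substitutions in the CDRs. In AlphaSeq, yeast of one mating type display the scFv and yeast of the other type display the target. Pairs that bind mate more often; barcode pairs of the diploids are counted by sequencing. Read counts were normalised to the haploid input and turned into Kd by a linear fit to BCL2-family pairs of known affinity, for each replicate. There are three technical replicates.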

Ab-95 is the parent antibody, in scFv form: VH, then a 15-residue (Gly4Ser)3 linker, then VL. The heavy chain is unchanged in all variants.
VH: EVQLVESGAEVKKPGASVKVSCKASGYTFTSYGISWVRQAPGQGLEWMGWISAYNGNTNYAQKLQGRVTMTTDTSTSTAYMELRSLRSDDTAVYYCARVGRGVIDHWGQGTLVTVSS
VL: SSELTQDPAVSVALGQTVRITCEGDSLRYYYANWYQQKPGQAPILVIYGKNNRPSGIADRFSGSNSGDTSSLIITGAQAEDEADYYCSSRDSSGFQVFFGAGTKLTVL

Variants are written as CDR1, CDR2 and CDR3 of the light chain (limits as in the source). Parent: EGDSLRYYYAN, GKNNRPS, SSRDSSGFQVF.
Values are log10 of the apparent Kd in nM; lower means stronger binding.
Averages over replicates are reported, and they cover detected replicates only.
A pair that was not seen in that replicate is written "n.d."; this usually means weak binding, but a binder can also be missed.
Empty control strains, which show no peptide, gave a signal in 28% of pairings with library AAYL52; the median was 3.91 and 95% of these signals were weaker than 2.90. No background was subtracted. The control count says in how many pairings with the empty strains this scFv gave a signal, with their mean in brackets.

| # | CDR-L1 | CDR-L2 | CDR-L3 | log10 Kd, replicates | log10 Kd (nM), mean | empty controls |
|---|---|---|---|---|---|---|
| 1 | EGDSLRYYYAN | GPNNRPS | ASRDSSGFQEF | 2.97 / 4.83 / n.d. | 3.90 | 2/9 (3.96) |
| 2 | EGDSLRYYYAN | GKNNRPR | SSRDSSLTQVF | 2.45 / 3.18 / 3.35 | 2.99 | 2/9 (4.33) |
| 3 | EGDSLRYYYAN | GKNNRLS | SNRDSSGFQVV | n.d. / n.d. / 3.81 | 3.81 | 1/9 (3.82) |
| 4 | YGDSLRYYYAN | GKNNRWS | SSRDSSGFAVF | 4.22 / 4.11 / 3.71 | 4.01 | 3/9 (4.14) |
| 5 | EGDENRYYYAN | GKNPRPS | SSRDSSGFQVF | 3.70 / n.d. / n.d. | 3.70 | 2/9 (3.00) |
| 6 | EGDSLGYYIAN | GKNERPS | SSRDSSGFQVF | 3.05 / 3.06 / 2.82 | 2.98 | 4/9 (4.83) |
| 7 | EGDSLRYYYAN | CFNNRPS | SSRDSSGFQLF | 2.97 / 3.86 / 3.10 | 3.31 | 2/9 (3.69) |
| 8 | EGCSLRYYYAN | GKNNRES | SSRDSTGFQVF | 3.87 / 4.19 / 2.62 | 3.56 | 2/9 (4.79) |
| 9 | EGDSLYYYYAN | GSNNRPW | SSRDSSGFQVF | 1.85 / 1.33 / 0.83 | 1.34 | 0/9 |
| 10 | EGDSERYRYAN | GKNNRPS | SSRDSKGFQVF | 2.76 / 2.96 / 3.27 | 3.00 | 6/9 (4.22) |
| 11 | EFDSLRYYCAN | GKNNRPS | SQRDSSGFQVF | n.d. / n.d. / n.d. | n.d. | 2/9 (3.77) |
| 12 | EGDSIRYLYAN | GKNNRPS | SSRDASGFQVF | 3.78 / 3.42 / 2.77 | 3.32 | 3/9 (4.36) |
| 13 | CGDVLRYYYAN | GKNNRMS | SSRDSSGFQVF | n.d. / 3.56 / n.d. | 3.56 | 1/9 (4.60) |
| 14 | EGDSLKYYYAN | GKNNRPS | SSRDSSMFQVP | 3.79 / 3.61 / 4.42 | 3.94 | 2/9 (3.52) |
| 15 | EGDSLRYYYAN | GKNNLPS | SSRDDSGFQVL | 2.95 / 3.66 / 3.23 | 3.28 | 2/9 (3.81) |
| 16 | EGDSLRYYYWN | GKNNRPS | TPRDSSGFQVF | n.d. / n.d. / n.d. | n.d. | 0/9 |
| 17 | FGDSLRYYYPN | GKNNRPS | SSRDSSGFQVF | 1.82 / 1.96 / 1.34 | 1.71 | 4/9 (4.22) |
| 18 | EGDSLRYYYAN | GKNNRPF | ISRDPSGFQVF | 2.77 / 3.08 / 3.07 | 2.97 | 0/9 |
| 19 | EGKSLRYYYDN | YKNNRPS | SSRDSSGFQVF | 2.99 / 2.32 / 2.67 | 2.66 | 2/9 (3.99) |
| 20 | EGDCLRYLYAN | GKNNRPS | SSRDSSGFGVF | 4.99 / n.d. / n.d. | 4.99 | 6/9 (4.16) |
| 21 | RGDSLRYYYAN | GKNNRPS | SLRDSSGFWVF | 3.11 / 3.46 / 3.46 | 3.34 | 1/9 (4.37) |
| 22 | ENWSLRYYYAN | KKNNRPS | SSRDSSGFQVF | 4.31 / 4.27 / n.d. | 4.29 | 3/9 (3.81) |
| 23 | HGDSLRYYYAN | GKNNRPS | SSRDSSGFQVW | 2.42 / 2.21 / 1.81 | 2.15 | 2/9 (4.37) |
| 24 | NGDHLRYYYAN | GKNNRPS | SSRDSSMFQVF | n.d. / 4.27 / 4.19 | 4.23 | 2/9 (3.58) |
| 25 | EGDSLPYYYAN | GKNNRKS | SSRDSSGFCVF | 4.03 / 3.54 / 3.09 | 3.55 | 2/9 (4.79) |
| 26 | EGDSLRYYYAN | GKNNRPS | SLRDSGGDQVF | n.d. / n.d. / n.d. | n.d. | 1/9 (2.43) |
| 27 | EGDSLRYYYAN | GKNNRQS | SSRKDSGFQVF | n.d. / n.d. / 4.13 | 4.13 | 4/9 (3.91) |
| 28 | EGDSLRYYYAN | GKTDRPS | YSRDSSGFQVF | 3.71 / 4.05 / n.d. | 3.88 | 5/9 (4.10) |
| 29 | EGDELRYYYEN | GKNNRPS | SSRDSSMFQVF | n.d. / n.d. / n.d. | n.d. | 0/9 |
| 30 | EADSLGYYYAN | GKNNRPS | SSRDSSKFQVF | 2.87 / 2.32 / 2.32 | 2.51 | 1/9 (2.46) |
| 31 | EGDSRRYYYAN | GKYNRPS | SSRDSSWFQVF | n.d. / n.d. / n.d. | n.d. | 1/9 (3.44) |
| 32 | EGDSLYIYYAN | GKNNRPS | SSRDCSGFQVF | 4.50 / n.d. / n.d. | 4.50 | 2/9 (4.52) |
| 33 | EGDSLRYYYAN | GKNNRPS | SKRDFSTFQVF | 2.48 / 2.08 / 1.99 | 2.18 | 1/9 (4.11) |
| 34 | EGDTMRYYYAN | GKNNRPS | SSRDSSGFQVE | n.d. / n.d. / n.d. | n.d. | 1/9 (3.01) |
| 35 | EGDSLRYYYAN | GKNNRFS | SSRDSMGFQVF | 3.38 / 4.00 / n.d. | 3.69 | 0/9 |
| 36 | EGDSLRYYYKN | GKNNRPS | SYRDSSGGQVF | n.d. / 5.56 / n.d. | 5.56 | 0/9 |
| 37 | EGDSLRYYYAN | GINNRPS | SSRDSFEFQVF | 4.51 / n.d. / n.d. | 4.51 | 2/9 (4.08) |

The first 6 variants above that were never detected:

CDR-L1	CDR-L2	CDR-L3	log10 Kd, replicates	log10 Kd (nM), mean	empty controls
EFDSLRYYCAN	GKNNRPS	SQRDSSGFQVF	n.d. / n.d. / n.d.	n.d.	2/9 (3.77)
EGDSLRYYYWN	GKNNRPS	TPRDSSGFQVF	n.d. / n.d. / n.d.	n.d.	0/9
EGDSLRYYYAN	GKNNRPS	SLRDSGGDQVF	n.d. / n.d. / n.d.	n.d.	1/9 (2.43)
EGDELRYYYEN	GKNNRPS	SSRDSSMFQVF	n.d. / n.d. / n.d.	n.d.	0/9
EGDSRRYYYAN	GKYNRPS	SSRDSSWFQVF	n.d. / n.d. / n.d.	n.d.	1/9 (3.44)
EGDTMRYYYAN	GKNNRPS	SSRDSSGFQVE	n.d. / n.d. / n.d.	n.d.	1/9 (3.01)